{
  "source": "patent US12617776B2",
  "about": "“Stable salt and crystal forms of 2-[3-({1-[2-(dimethylamino)ethyl]-2-(2,2-dimethylpropyl)-1H-1,3-benzodiazol-5-yl}sulfonyl)azetidin-1-yl]ethan-1-ol” (priority 2020, dated 2026)",
  "key": {"[1]": {"assay": "Vapor stress of crystalline and amorphous AAT-730 HCl salt (Methods 5-7, 5-8)", "format": "physicochemical"}, "[2]": {"details": "Aw greater than or equal to 0.6"}, "[3]": {"details": "for form after humidity stress (XRPD): 7 days"}, "[4]": {"assay": "Humidity stress of possible salts at 40° C./75% RH (Method 3-8)", "format": "physicochemical", "details": "1 week"}},
  "note": "Where a name gives a salt, the structure may show the parent alone. Read-outs that look alike come from different tables or passages of the source.",
  "data": [
    {"smiles": "CN(C)CCn1c(CC(C)(C)C)nc2cc(S(=O)(=O)C3CN(CCO)C3)ccc21", "note": "[AAT-730 HCl salt Pattern 1]", "values": [
      {"measurement": "XRPD", "setting": "[1]", "result": "Pattern 2"},
      {"measurement": "form after solvent vapor stress (XRPD)", "setting": "[1]", "result": "converted to Pattern 2"},
      {"measurement": "stability in water activity experiments", "setting": "[2]", "result": "more stable form"},
      {"measurement": "XRPD", "setting": "HCl salt input Pattern 1, freeze drying, water, sample TW-0012E-011-01", "result": "Pattern 4"},
      {"measurement": "XRPD", "setting": "HCl salt input Pattern 1, planetary milling, Cyclohexane, sample TW0012E-017-04", "result": "Disordered Pattern 1"},
      {"measurement": "XRPD", "setting": "HCl salt input Pattern 1, planetary milling, DCM, sample TW0012E-017-05", "result": "Pattern 1"},
      {"measurement": "XRPD", "setting": "HCl salt input Pattern 1, planetary milling, DIPE, sample TW0012E-017-07", "result": "Disordered Pattern 1"},
      {"measurement": "XRPD", "setting": "HCl salt input Pattern 1, planetary milling, EtOAc, sample TW0012E-017-09", "result": "Pattern 1"},
      {"measurement": "XRPD", "setting": "HCl salt input Pattern 1, planetary milling, EtOH, sample TW0012E-017-08", "result": "Pattern 1"},
      {"measurement": "XRPD", "setting": "HCl salt input Pattern 1, planetary milling, IPA, sample TW0012E-017-13", "result": "Pattern 1"},
      {"measurement": "XRPD", "setting": "HCl salt input Pattern 1, planetary milling, MIBK, sample TW0012E-017-12", "result": "Pattern 1"},
      {"measurement": "XRPD", "setting": "HCl salt input Pattern 1, planetary milling, acetone, sample TW0012E-017-01", "result": "Disordered Pattern 1"},
      {"measurement": "XRPD", "setting": "HCl salt input Pattern 1, planetary milling, dioxane, sample TW0012E-017-06", "result": "Pattern 1"},
      {"measurement": "XRPD", "setting": "HCl salt input Pattern 1, planetary milling, heptane, sample TW0012E-017-10", "result": "Pattern 1"},
      {"measurement": "XRPD", "setting": "HCl salt input Pattern 1, planetary milling, i-PrOAc, sample TW0012E-017-14", "result": "Pattern 1"},
      {"measurement": "XRPD", "setting": "HCl salt input Pattern 1, planetary milling, no solvent, sample TW0012E-017-16", "result": "Disordered Pattern 1"},
      {"measurement": "XRPD", "setting": "HCl salt input Pattern 1, planetary milling, toluene, sample TW0012E-017-15", "result": "Pattern 1"},
      {"measurement": "XRPD", "setting": "HCl salt, crash precipitation, water, anti-solvent IPA, sample TW-0012E-009-05", "result": "Pattern 3"},
      {"measurement": "XRPD", "setting": "HCl salt, crash precipitation, water, anti-solvent MeOH, sample TW-0012E-009-04", "result": "Pattern 4"},
      {"measurement": "XRPD", "setting": "HCl salt, slow cooling, MeOH, sample TW-0012E-016-01", "result": "Pattern 1"},
      {"measurement": "XRPD", "setting": "HCl salt, slow cooling, THF/water (13/1, Aw at most 0.9), sample TW-0012E-016-03", "result": "Pattern 1"},
      {"measurement": "XRPD", "setting": "HCl salt, slow evaporation, EtOH/water (50/50), sample TW-0012E-008-03", "result": "Pattern 4"},
      {"measurement": "XRPD", "setting": "HCl salt, slurry, ACN, 5° C., 5 days, sample TW-0012E-004-02", "result": "Pattern 1"},
      {"measurement": "XRPD", "setting": "HCl salt, slurry, ACN, 20° C., 5 days, sample TW-0012E-005-02", "result": "Pattern 2"},
      {"measurement": "XRPD", "setting": "HCl salt, slurry, ACN, 50° C., 7 days, sample TW-0012E-006-02", "result": "Pattern 2"},
      {"measurement": "XRPD", "setting": "HCl salt, slurry, DCM, 5° C., 5 days, sample TW-0012E-004-03", "result": "Pattern 1"},
      {"measurement": "XRPD", "setting": "HCl salt, slurry, DCM, 20° C., 5 days, sample TW-0012E-005-03", "result": "Pattern 2"},
      {"measurement": "XRPD", "setting": "HCl salt, slurry, DCM, 40° C., 5 days, sample TW-0012E-003-03", "result": "Pattern 1"},
      {"measurement": "XRPD", "setting": "HCl salt, slurry, DMSO/water (80/20, Aw at most 0.27), 5° C., 5 days, sample TW-0012E-004-06", "result": "Pattern 1"},
      {"measurement": "XRPD", "setting": "HCl salt, slurry, DMSO/water (80/20, Aw at most 0.27), 20° C., 5 days, sample TW-0012E-005-06", "result": "Pattern 1"},
      {"measurement": "XRPD", "setting": "HCl salt, slurry, EtOH, 5° C., 5 days, sample TW-0012E-004-04", "result": "Pattern 1"},
      {"measurement": "XRPD", "setting": "HCl salt, slurry, EtOH, 20° C., 5 days, sample TW-0012E-005-04", "result": "Pattern 2"},
      {"measurement": "XRPD", "setting": "HCl salt, slurry, EtOH, 50° C., 7 days, sample TW-0012E-006-04", "result": "Pattern 2"},
      {"measurement": "XRPD", "setting": "HCl salt, slurry, THF, 5° C., 5 days, sample TW-0012E-004-05", "result": "Pattern 2"},
      {"measurement": "XRPD", "setting": "HCl salt, slurry, THF, 20° C., 5 days, sample TW-0012E-005-05", "result": "Pattern 2"},
      {"measurement": "XRPD", "setting": "HCl salt, slurry, THF, 50° C., 7 days, sample TW-0012E-006-05", "result": "Pattern 2"},
      {"measurement": "XRPD", "setting": "HCl salt, slurry, THF/water (13/1, Aw at most 0.9), 5° C., 5 days, sample TW-0012E-004-08", "result": "Pattern 1"},
      {"measurement": "XRPD", "setting": "HCl salt, slurry, THF/water (13/1, Aw at most 0.9), 20° C., 5 days, sample TW-0012E-005-08", "result": "Pattern 1"},
      {"measurement": "XRPD", "setting": "HCl salt, slurry, acetone, 5° C., 5 days, sample TW-0012E-004-01", "result": "Pattern 1"},
      {"measurement": "XRPD", "setting": "HCl salt, slurry, acetone, 20° C., 5 days, sample TW-0012E-005-01", "result": "Pattern 2"},
      {"measurement": "XRPD", "setting": "HCl salt, slurry, acetone, 50° C., 7 days, sample TW-0012E-006-01", "result": "Pattern 2"},
      {"measurement": "XRPD", "setting": "HCl salt, slurry, acetone/water (20/1, Aw at most 0.6), 5° C., 5 days, sample TW-0012E-004-07", "result": "Pattern 2"},
      {"measurement": "XRPD", "setting": "HCl salt, slurry, acetone/water (20/1, Aw at most 0.6), 20° C., 5 days, sample TW-0012E-005-07", "result": "Pattern 2"},
      {"measurement": "XRPD", "setting": "HCl salt, sonication of paste, ACN, sample TW-0012E-010-02", "result": "Pattern 2"},
      {"measurement": "XRPD", "setting": "HCl salt, sonication of paste, DCM, sample TW-0012E-010-03", "result": "Pattern 2"},
      {"measurement": "XRPD", "setting": "HCl salt, sonication of paste, EtOH, sample TW-0012E-010-04", "result": "Pattern 2"},
      {"measurement": "XRPD", "setting": "HCl salt, sonication of paste, MeOH, sample TW-0012E-010-08", "result": "Pattern 1"},
      {"measurement": "XRPD", "setting": "HCl salt, sonication of paste, THF, sample TW-0012E-010-05", "result": "Pattern 2"},
      {"measurement": "XRPD", "setting": "HCl salt, sonication of paste, acetone, sample TW-0012E-010-01", "result": "Pattern 2"},
      {"measurement": "XRPD", "setting": "HCl salt, sonication of paste, acetone/water (20/1, Aw at most 0.6), sample TW-0012E-010-07", "result": "Pattern 1"},
      {"measurement": "XRPD", "setting": "HCl salt, temperature cycling, 1-Butanol, sample TW-0012E-015-01", "result": "Pattern 2"},
      {"measurement": "XRPD", "setting": "HCl salt, temperature cycling, ACN, sample TW-0012E-003-02", "result": "Pattern 1"},
      {"measurement": "XRPD", "setting": "HCl salt, temperature cycling, DIPE, sample TW-0012E-015-03", "result": "Pattern 2"},
      {"measurement": "XRPD", "setting": "HCl salt, temperature cycling, Dioxane, sample TW-0012E-015-09", "result": "Pattern 2"},
      {"measurement": "XRPD", "setting": "HCl salt, temperature cycling, EtOH, sample TW-0012E-003-04", "result": "Pattern 1"},
      {"measurement": "XRPD", "setting": "HCl salt, temperature cycling, EtOH/water (50/50), sample TW-0012E-003-08", "result": "Pattern 1"},
      {"measurement": "XRPD", "setting": "HCl salt, temperature cycling, IPA, sample TW-0012E-015-08", "result": "Pattern 2"},
      {"measurement": "XRPD", "setting": "HCl salt, temperature cycling, MEK, sample TW-0012E-015-05", "result": "Pattern 2"},
      {"measurement": "XRPD", "setting": "HCl salt, temperature cycling, MIBK, sample TW-0012E-015-06", "result": "Pattern 2"},
      {"measurement": "XRPD", "setting": "HCl salt, temperature cycling, THF, sample TW-0012E-003-05", "result": "Pattern 1"},
      {"measurement": "XRPD", "setting": "HCl salt, temperature cycling, THF/water (13/1, Aw at most 0.9), sample TW-0012E-003-07", "result": "Pattern 1"},
      {"measurement": "XRPD", "setting": "HCl salt, temperature cycling, acetone, sample TW-0012E-003-01", "result": "Pattern 1"},
      {"measurement": "XRPD", "setting": "HCl salt, temperature cycling, acetone/water (20/1, Aw at most 0.6), sample TW-0012E-003-06", "result": "Pattern 1"},
      {"measurement": "XRPD", "setting": "HCl salt, temperature cycling, cyclohexane, sample TW-0012E-015-02", "result": "Pattern 2"},
      {"measurement": "XRPD", "setting": "HCl salt, temperature cycling, heptane, sample TW-0012E-015-12", "result": "Pattern 2"},
      {"measurement": "XRPD", "setting": "HCl salt, temperature cycling, i-PrOAc, sample TW-0012E-015-10", "result": "Pattern 2"},
      {"measurement": "XRPD", "setting": "HCl salt, temperature cycling, toluene, sample TW-0012E-015-11", "result": "Pattern 2"},
      {"measurement": "form after humidity stress (XRPD)", "setting": "[3]; 98% RH", "result": "remained as Pattern 1"},
      {"measurement": "XRPD", "setting": "[3]; HCl salt input Pattern 1, 23% RH stress, sample TW-0012E-013-01", "result": "Pattern 2"},
      {"measurement": "XRPD", "setting": "[3]; HCl salt input Pattern 1, 75% RH stress, sample TW-0012E-013-02", "result": "Pattern 2"},
      {"measurement": "XRPD", "setting": "[3]; HCl salt input Pattern 1, 98% RH stress, sample TW-0012E-013-03", "result": "Pattern 1"},
      {"measurement": "form after humidity stress (XRPD)", "setting": "[3]; less than or equal to 75% RH", "result": "converted to Pattern 2"},
      {"measurement": "stability to 40° C./75% RH stressing (deliquescence checked visually)", "setting": "[4]; listed as AAT-730 HCl salt Pattern A", "result": "stable"},
      {"measurement": "stability to 40° C./75% RH stressing (deliquescence checked visually)", "setting": "[4]; listed as HCl salt Pattern A", "result": "crystalline 1:1 salt, physically stable to 40° C./"}
    ]}
  ]
}
